Reference: patent US20220373534A1, “HUMAN NASOPHARYNGEAL CARCINOMA CELLS DERIVED FROM PATIENT DERIVED XENOGRAFT AND USES THEREOF” (Chang Gung Memorial Hospital, Linkou, priority 2021, published 2022)

Tested on: NPC PDX-B13
Assay: In vivo study of tumor volume in the NPC PDX-B13 mouse model
Parameters: species or system NOD/SCID mice
Conditions: week 6, read from FIG. 4
Method: NPC cell lines, C666-1 (EBV positive) and HK-1 (EBV negative), were maintained in RPMI containing 10% fetal bovine serum (FBS). A cell growth assay and animal studies were conducted as described by CL Hsu et al (“Application of a Patient-Derived Xenograft Model in Cytolytic Viral Activation Therapy for Nasopharyngeal Carcinoma.” Oncotarget 6, no. 31 (2015): 31323-34). All experiments involving laboratory animals followed the guidelines for animal experiments of Chang Gung Memorial Hospital (CGMH) and were approved by the IACUC of CGMH.
PDX models were generated as follows: NPC tumor samples were obtained from patients with local recurrence or metastasis undergoing biopsy or surgical resection. Each sample was immediately cut into smaller pieces of approximately 3-5 mm in diameter and subcutaneously implanted into the flank regions of anesthetized NOD/SCID mice. The xenograft was excised and reimplanted in small pieces into the next passage after the tumor reached 1-2 cm in diameter. The nomenclature system for our NPC PDX was NPC PDX-metastasized tissue (abbreviation)-patient number. Accordingly, the NPC PDX-ST1 and PDX-B13 corresponded to NPC PDX-soft tissue and NPC PDX-bone in reference, see Table 1 below. […]

Substance: cetuximab [ERB]
- inhibit PDX-B13 tumor growth (reduce tumor volume): approximately 30%
